Our source for the Ki values is patent publication US12617797B2, “Substituted pyrazolo [1,5-a]pyrimidines having multimodal activity against pain” (ESTEVE PHARMACEUTICALS, S.A., priority 2020, dated 2026).

Sequences of proteins named here, by UniProt entry; tags and fusion partners are left off. A change or cut given only in a name is not applied to a line headed by its entry. Residues count along the entry.
UniProt P54289, 25-1103 limits assumed: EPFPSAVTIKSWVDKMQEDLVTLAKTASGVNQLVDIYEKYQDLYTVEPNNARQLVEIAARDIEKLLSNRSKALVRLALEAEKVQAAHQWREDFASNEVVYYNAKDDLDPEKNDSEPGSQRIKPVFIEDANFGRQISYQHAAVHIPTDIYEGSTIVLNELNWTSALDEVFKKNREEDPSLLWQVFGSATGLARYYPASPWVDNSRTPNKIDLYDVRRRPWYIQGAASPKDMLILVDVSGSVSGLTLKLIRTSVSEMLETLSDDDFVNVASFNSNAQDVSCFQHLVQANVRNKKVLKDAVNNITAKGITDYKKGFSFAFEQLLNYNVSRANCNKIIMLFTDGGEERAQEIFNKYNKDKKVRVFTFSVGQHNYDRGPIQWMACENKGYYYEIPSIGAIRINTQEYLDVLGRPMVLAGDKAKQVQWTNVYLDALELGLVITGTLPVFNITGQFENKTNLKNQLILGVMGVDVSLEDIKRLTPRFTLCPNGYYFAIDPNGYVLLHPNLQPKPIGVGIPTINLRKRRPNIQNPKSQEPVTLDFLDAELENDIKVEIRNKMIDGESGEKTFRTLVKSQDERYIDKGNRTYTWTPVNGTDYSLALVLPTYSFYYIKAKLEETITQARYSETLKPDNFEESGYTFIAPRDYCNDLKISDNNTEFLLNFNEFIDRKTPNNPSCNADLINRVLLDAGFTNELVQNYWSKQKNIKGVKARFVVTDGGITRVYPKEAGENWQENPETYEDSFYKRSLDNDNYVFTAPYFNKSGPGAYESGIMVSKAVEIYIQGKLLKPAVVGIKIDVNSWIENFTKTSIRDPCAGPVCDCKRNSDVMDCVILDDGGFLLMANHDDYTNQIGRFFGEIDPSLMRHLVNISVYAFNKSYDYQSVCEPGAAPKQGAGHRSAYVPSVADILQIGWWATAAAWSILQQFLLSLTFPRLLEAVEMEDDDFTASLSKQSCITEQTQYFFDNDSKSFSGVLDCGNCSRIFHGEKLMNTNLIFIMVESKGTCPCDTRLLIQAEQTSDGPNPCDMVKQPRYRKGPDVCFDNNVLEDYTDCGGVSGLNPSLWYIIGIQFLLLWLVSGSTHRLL
UniProt Q99720, whole entry: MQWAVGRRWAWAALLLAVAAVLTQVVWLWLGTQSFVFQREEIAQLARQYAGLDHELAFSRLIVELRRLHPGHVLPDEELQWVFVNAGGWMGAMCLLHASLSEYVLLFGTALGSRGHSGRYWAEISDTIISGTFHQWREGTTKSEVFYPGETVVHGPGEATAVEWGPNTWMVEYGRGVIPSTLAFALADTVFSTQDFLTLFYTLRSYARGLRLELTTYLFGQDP

For assay [1], the target named is Human α2δ-1 subunit of Cav2.2 calcium channel (Homo sapiens, UniProt P54289). The assay can be described thus: Human α2δ-1 subunit of Cav2.2 calcium channel assay ([3H]-gabapentin binding). Conditions: read-out: α2δ binding; binding to the α2δ-1 subunit of voltage-gated calcium channels expressed as Ki; + also covers inhibition between 1% and 50%. The method, then: Biological Activity Pharmacological Study Human α2δ-1 Subunit of Cav2.2 Calcium Channel Assay
Human α2δ-1 enriched membranes (2.5 μg) were incubated with 15 nM of radiolabeled [^3H]-Gabapentin in assay buffer containing Hepes-KOH 10 mM, pH 7.4. NSB (non specific binding) was measured by adding 10 μM pregabalin. The binding of the test compound was measured at either one concentration (% inhibition at 1 or 10 μM) or five different concentrations to determine affinity values (Ki). After 60 min incubation at 27° C., binding reaction was terminated by filtering through Multiscreen GF/C (Millipore) presoaked in 0.5% polyethyleneimine in Vacuum Manifold Station, followed by 3 washes with ice-cold filtration buffer containing 50 mM Tris-HCl, pH 7.4. Filter plates were dried at 60° C. for 1 h and 30 μL of scintillation cocktail were added to each well before radioactivity reading. Readings were performed in a Trilux 1450 Microbeta radioactive counter (Perkin Elmer).

The next assay addresses Human σ1 receptor (Homo sapiens, UniProt Q99720). The assay can be described thus: Human σ1 receptor radioligand assay ([3H](+)-pentazocine binding, transfected HEK-293 membranes). Conditions: read-out: σ-1 binding; binding to σ1 receptor expressed as Ki; + also covers inhibition between 1% and 50%. The method, then: Human σ1 Receptor Radioligand Assay
Transfected HEK-293 membranes (7 μg) were incubated with 5 nM of [^3H](+)-pentazocine in assay buffer containing Tris-HCl 50 mM at pH 8. NBS (non-specific binding) was measured by adding 10 μM haloperidol. The binding of the test compound was measured at either one concentration (% inhibition at 1 or 10 μM) or five different concentrations to determine affinity values (Ki). Plates were incubated at 37° C. for 120 minutes. After the incubation period, the reaction mix was then transferred to MultiScreen HTS, FC plates (Millipore), filtered and plates were washed 3 times with ice-cold 10 mM Tris-HCL (pH7.4). Filters were dried and counted at approximately 40% efficiency in a MicroBeta scintillation counter (Perkin-Elmer) using EcoScint liquid scintillation cocktail.

`Cc1nn2c([C@H]3CCCN(Cc4ccc(Cl)cc4)C3)ccnc2c1CN(C)C`: the Ki was 500 to 5000 nM in assay [1] and under 500 nM on Human σ1 receptor.
